Protein sequences, listed by entry. Tags and fused reporters are not part of them.
UniProt P25101, whole entry: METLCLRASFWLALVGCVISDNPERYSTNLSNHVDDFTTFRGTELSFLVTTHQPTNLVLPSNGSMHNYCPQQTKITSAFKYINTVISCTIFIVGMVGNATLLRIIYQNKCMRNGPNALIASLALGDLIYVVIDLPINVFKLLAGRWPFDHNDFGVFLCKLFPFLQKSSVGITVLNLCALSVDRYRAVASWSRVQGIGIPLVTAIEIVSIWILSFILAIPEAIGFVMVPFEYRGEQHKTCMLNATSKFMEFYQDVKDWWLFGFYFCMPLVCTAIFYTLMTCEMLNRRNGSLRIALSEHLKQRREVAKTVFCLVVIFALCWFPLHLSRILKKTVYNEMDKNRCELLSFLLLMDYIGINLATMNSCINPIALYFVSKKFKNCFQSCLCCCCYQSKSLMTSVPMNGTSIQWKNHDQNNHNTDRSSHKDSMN

In ChEMBL document CHEMBL1129980, “New non-peptide endothelin-A receptor antagonists: synthesis, biological properties, and structure-activity relationships of 5-(dimethylamino)-N-pyridyl-,-N-pyrimidinyl-,-N-pyridazinyl-, and -N-pyrazinyl-1-naphthalenesulfonamides” (J Med Chem, 1997):

Biological target: Endothelin-1 receptor (Homo sapiens, UniProt P25101)
Experiment: Inhibition of specific binding of [125-I]ET-1 to human endothelin A receptor

pIC50: 5.20
Structure (SMILES): CN(C)c1cccc2c(S(=O)(=O)Nc3ncccn3)cccc12

pIC50: −log10 of the molar value.
